The values below are quoted from earlier work in patent US5888536A, “Liposome composition containing selegilin” (Chinoin Ltd., priority 1994, dated 1999).

The data set has as its system MAO-B. The settings on record: known effect.

In the case of `C#CCN(C)[C@H](C)Cc1ccccc1` [selegilin, (-)-[N-α-dimethyl-N-(2-propynylphenylethylamine)]], the “MAO-B selectivity of inhibition” value is “selective MAO-B inhibiting effect”.
